What was measured:
human 5-HT2C receptor = human 5-HT2C receptor (Homo sapiens, UniProt P28335); assay: Calcium mobilization (FLIPR) in CHO cells stably expressing the human 5-HT2C receptor; format: cell-based; conditions: reference compounds, h5-HT2C CHO cells
[1] = biological target: T1, human 5-hydroxytryptamine-2C (h5-HT2C) receptor (Homo sapiens, UniProt P28335); assay: [125I]DOI binding to membranes of CHO cells expressing the human 5-HT2C receptor; conditions: reference compounds, [125I]DOI displacement, read-out: Ki (95% confidence interval)
T1 construct: expressed in transfected cells; host or cells: CHO (Chinese Hamster Ovary) cells; membrane preparation

Amino acid sequences for entries named in this document (tags omitted). Residues count along the entry.
UniProt P28335, 33-458: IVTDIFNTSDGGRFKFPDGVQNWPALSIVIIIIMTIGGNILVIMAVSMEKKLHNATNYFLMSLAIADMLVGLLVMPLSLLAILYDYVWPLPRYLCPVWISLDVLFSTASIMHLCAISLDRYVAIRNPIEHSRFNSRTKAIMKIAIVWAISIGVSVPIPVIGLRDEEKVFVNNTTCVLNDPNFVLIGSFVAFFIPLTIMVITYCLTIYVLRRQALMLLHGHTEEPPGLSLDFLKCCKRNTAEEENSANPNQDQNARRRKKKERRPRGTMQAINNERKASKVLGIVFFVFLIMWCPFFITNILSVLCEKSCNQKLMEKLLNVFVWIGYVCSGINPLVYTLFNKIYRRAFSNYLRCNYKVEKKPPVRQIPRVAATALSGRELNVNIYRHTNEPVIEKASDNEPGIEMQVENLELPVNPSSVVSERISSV

With “1-(2,5-dimethoxy-4-iodophenyl)isopropylamine [DOI, reference compound]” the EC50 (human 5-HT2C receptor) was 0.5 nM and the Ki [1] was 6.2 nM.
